In patent US20260364175A1, “COMPOSITIONS FOR DRUG ADMINISTRATION” (Aegis Therapeutics, LLC, priority 2018, published 2026):
Structures can show the parent of a compound that is named as a salt.

Assay: Octreotide pharmacokinetics after s.c. and oral delivery
Details: oral […] DDM, second peak; 1 mg/kg
Experimental: C prior to administration. […] Death is confirmed by cervical dislocation. […] Euthanasia is confirmed by cervical dislocation.
Pharmacokinetic analyses is carried out as follows.
Serum half-life (t1/2) is determined as follows.

## C[C@@H](O)[C@@H]1NC(=O)[C@H](CCCCN)NC(=O)[C@@H](Cc2c[nH]c3ccccc23)NC(=O)[C@H](Cc2ccccc2)NC(=O)[C@@H](NC(=O)[C@H](N)Cc2ccccc2)CSSC[C@@H](C(=O)N[C@H](CO)[C@@H](C)O)NC1=O (relative stereo) [Octreotide, L-Cysteinamide, D-phenylalanyl-L-cysteinyl-L-phenylalanyl-D-tryptophyl-L-lysyl-L-threonyl-N-[2-hydroxy-1-(hydroxymethyl)propyl]-, cyclic (2→7)-disulfide; [R—(R*, R*)]acetate salt]
  t1/2 2: 24.84 min
